Laboratory results: US9102636B2, “Analgesic compounds, compositions, and uses thereof” (Galleon Pharmaceuticals, Inc., priority 2010, dated 2015)

How the values were obtained:
Type in all cases: in vivo
[1] = tested on: fentanyl analgesia (tail flick); test: Preservation of fentanyl analgesia in rat tail flick assay; details: compound IV 15 min before fentanyl 25 μg/kg, FIG. 1
[2] = tested on: fentanyl analgesia (Hargreaves); test: Opioid dose-sparing (simulated patient controlled analgesia), Hargreaves; details: rat, 25 mg/kg IV 15 min before fentanyl, five hourly fentanyl doses, FIG. 3
[3] = tested on: fentanyl analgesia / hyperalgesia; test: Duration of action of a single IV dose on repeated fentanyl doses; details: rat

CC1(C)SC(Nc2ccccc2O)=N[C@@H]1C(=O)O [Compound 2, (R)-2-(2-hydroxyphenylamino)-thiazoline-5,5-dimethyl-4-carboxylic acid]
preservation of fentanyl analgesia, tail flick [1]: dose-dependently preserves fentanyl analgesia
fentanyl dose-sparing, Hargreaves thermal endpoints ([2]; 25 mg/kg): Significant levels of analgesia were maintained
fentanyl dose-sparing, Hargreaves thermal endpoints ([2]; listed as compound 2, 25 mg/kg): preserves fentanyl analgesia, allowing smaller doses of fentanyl to elicit full or significant analgesia
preservation of fentanyl analgesia (tolerance, hyperalgesia) ([3]; fentanyl 25 μg/kg daily for four days, FIG. 6): preserves fentanyl analgesia by reducing tolerance and inhibiting hyperalgesia
preservation of fentanyl analgesia / hyperalgesia after single dose ([3]; four doses of fentanyl over two days, FIG. 5): preserves fentanyl analgesia and inhibits development of hyperalgesia even after four doses of fentanyl
preservation of fentanyl analgesia / hyperalgesia after single dose ([3]; three doses of fentanyl 25 μg/kg separated by 2.5 hours, FIG. 4): preserves fentanyl analgesia and blocks hyperalgesia even after three doses of fentanyl
